{"source": "patent US5587392A", "about": "“Azolyl methyl phenyl derivatives having aromatase inhibitory activity” (Mochida Pharmaceutical Co., Ltd., priority 1994, dated 1996)", "origin": "cited, not measured here", "test_system": "aromatase", "conditions": "related art; cited from earlier work", "data": [{"smiles": "CCC1(c2ccc(N)cc2)CCC(=O)NC1=O", "note": "(stereo not shown) [AG, Aminoglutethimide]", "values": [{"measurement": "aromatase inhibitory action", "result": "weak aromatase inhibitory action"}]}]}
